Data on two molecules can be found in publication PMC5303876 (2017).

This assay concerns the target PD-L1 protein (F19-R238), refolded from E. coli (human, UniProt Q9NZQ7 19-238). As to the kind of experiment: SPR. (In SPR one partner is held on a chip, and binding of the other changes the refractive index at the surface.)

B1: refolded N-loop truncated PD-1 (N33-R147, IgV domain) expressed in E. coli (domain or fragment)
chain: NPPTFSPALLVVTEGDNATFTCSFSNTSESFVLNWYRMSPSNQTDKLAAFPEDRSQPGQDCRFRVTQLPNGRDFHMSVVRARRNDSGTYLCGAISLAPKAQIKESLRAELRVTER
Take B1: binding was characterised by a dissociation constant (Kd) of 4.06 µM.

B2: N-loop truncated PD-1 (N33-R147, IgV domain) expressed in insect cells (domain or fragment)
chain: NPPTFSPALLVVTEGDNATFTCSFSNTSESFVLNWYRMSPSNQTDKLAAFPEDRSQPGQDCRFRVTQLPNGRDFHMSVVRARRNDSGTYLCGAISLAPKAQIKESLRAELRVTER
On to B2, for which binding was put at a Kd of 2.49 µM.
